# AlphaSeq binding of Ab-14 heavy chain variants to a spike HR2 peptide

Reference: Li et al. 2023, doi:10.1038/s41467-023-39022-2. File: FLAb, binding data.

Target: peptide PDVDLGDISGINAS, taken from heptad repeat 2 (HR2) of SARS-CoV-2 spike.

Parent scFv Ab-14: VH joined to VL by a 15-residue (Gly4Ser)3 linker. Changes lie in the heavy chain CDRs alone.
VH: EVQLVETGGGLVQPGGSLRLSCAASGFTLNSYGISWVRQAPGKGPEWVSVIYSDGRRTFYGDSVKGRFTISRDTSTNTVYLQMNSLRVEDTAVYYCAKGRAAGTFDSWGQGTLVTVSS
VL: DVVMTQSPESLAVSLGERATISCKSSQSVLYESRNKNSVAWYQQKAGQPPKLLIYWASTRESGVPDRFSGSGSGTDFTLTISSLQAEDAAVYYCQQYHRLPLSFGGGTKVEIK

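The starting antibody came from a phage panning campaign against this peptide. These sequences belong to a second round, designed from the earlier measurements on random variants of the parent. Their group label is 14H_En_Gen (En: ensemble of fine-tuned language models; Gen: genetic algorithm). Affinity was read by AlphaSeq, a pooled yeast mating assay with surface-displayed partners. Pairs that bind mate more often; barcode pairs of the diploids are counted by sequencing. Each replicate has its own calibration line, from reference interactions of the BCL2 family. Each pool was mated in six replicate cultures.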

The parent's heavy chain CDRs are GFTLNSYGIS, VIYSDGRRTFYGDSVK, GRAAGTFDS; each variant's own CDRs replace them letter for letter.
Affinities are written as log10 Kd with Kd in nM; a lower number is a better binder.
The mean shown is taken over the replicates in which the pair was detected.
A pair that was not seen in that replicate is written "ND"; this usually means weak binding, but a binder can also be missed.
The range of this assay differs from that of the first round, and the authors advise against merging the two.
Background: pairings of all heavy chain designs with three empty control strains gave a value in 1% of cases (median 2.08, 5th percentile 0.84). Values in that range, when seen in few replicates, are hard to tell from nonspecific mating. Also given: how often the same scFv was detected with the empty control strains, with their mean in brackets.
The authors' rule: three or more of the six replicates give a measured affinity, fewer mean a poor binder.

{"CDR-H1": "GFDLNEYGIS", "CDR-H2": "VIYADGMRTYYADDVK", "CDR-H3": "GQNAGTFDI", "log10 Kd (nM) by replicate": "-0.95 / -1.60 / -1.23 / -1.59 / ND / -1.51", "log10 Kd (nM), mean": "-1.37", "empty controls": "0/18"}
{"CDR-H1": "GFDLDEYGIS", "CDR-H2": "VIYADGLRTAYADDVK", "CDR-H3": "GENAGTFDV", "log10 Kd (nM) by replicate": "ND / ND / ND / ND / ND / 0.76", "log10 Kd (nM), mean": "0.76", "empty controls": "0/18"}
{"CDR-H1": "GFDLNEYGIS", "CDR-H2": "VIYADGMRTVYSDSVK", "CDR-H3": "GENAGTFDV", "log10 Kd (nM) by replicate": "-0.16 / 0.14 / -0.36 / -0.52 / -0.11 / 0.07", "log10 Kd (nM), mean": "-0.16", "empty controls": "0/18"}
{"CDR-H1": "GFDLNEYGIS", "CDR-H2": "VIYADGKRTAYADSVK", "CDR-H3": "GNEAGTFDL", "log10 Kd (nM) by replicate": "0.35 / -0.06 / -0.14 / -0.06 / -0.66 / -0.08", "log10 Kd (nM), mean": "-0.11", "empty controls": "0/18"}
{"CDR-H1": "GFDLNEYGIS", "CDR-H2": "VIYADGMRTAYADKVK", "CDR-H3": "GNTAGTFDV", "log10 Kd (nM) by replicate": "0.13 / -0.62 / -0.32 / -0.81 / -0.88 / -0.78", "log10 Kd (nM), mean": "-0.55", "empty controls": "0/18"}
{"CDR-H1": "GFDLNEYGIS", "CDR-H2": "VIYADGQRTAYVDSVK", "CDR-H3": "GNQAGTFDV", "log10 Kd (nM) by replicate": "0.53 / 0.05 / 0.33 / 0.45 / 0.45 / 1.10", "log10 Kd (nM), mean": "0.49", "empty controls": "0/18"}
{"CDR-H1": "GFDLDEYGIS", "CDR-H2": "VIYADGQRTAYADSVK", "CDR-H3": "GQVAGTFDV", "log10 Kd (nM) by replicate": "-0.60 / -0.48 / -0.45 / -0.73 / -1.10 / -0.35", "log10 Kd (nM), mean": "-0.62", "empty controls": "0/18"}
{"CDR-H1": "GFDLNEYGIS", "CDR-H2": "VIYADGTRTAYADSVK", "CDR-H3": "GNNAGTFDV", "log10 Kd (nM) by replicate": "-0.23 / -0.38 / -0.31 / -0.45 / -0.42 / 0.04", "log10 Kd (nM), mean": "-0.29", "empty controls": "0/18"}
{"CDR-H1": "GFDLNEYGIS", "CDR-H2": "VIYADGMRTAYADDVK", "CDR-H3": "GTNAGTFDV", "log10 Kd (nM) by replicate": "ND / -1.56 / -1.56 / 0.11 / -1.44 / -0.67", "log10 Kd (nM), mean": "-1.02", "empty controls": "0/18"}
{"CDR-H1": "GFDLNEYGIS", "CDR-H2": "VIYADGKRTSYADSVK", "CDR-H3": "GNVAGTFDQ", "log10 Kd (nM) by replicate": "-0.28 / -0.61 / -0.29 / -0.73 / -0.29 / -0.48", "log10 Kd (nM), mean": "-0.45", "empty controls": "0/18"}
{"CDR-H1": "GFDLNEYGIS", "CDR-H2": "VIYADGMRTVYADSVK", "CDR-H3": "GENAGTFDM", "log10 Kd (nM) by replicate": "-0.41 / -0.70 / -0.67 / -0.83 / -0.56 / -0.55", "log10 Kd (nM), mean": "-0.62", "empty controls": "1/18 (1.88)"}
{"CDR-H1": "GFDLNEYGIS", "CDR-H2": "VIYADGRRTAYANSVK", "CDR-H3": "GNVAGTFDV", "log10 Kd (nM) by replicate": "-0.40 / -0.04 / -0.23 / -0.33 / -0.53 / 0.16", "log10 Kd (nM), mean": "-0.23", "empty controls": "1/18 (3.99)"}
{"CDR-H1": "GFDLDEYGIS", "CDR-H2": "VIYADGKRTAYSDSVK", "CDR-H3": "GNNAGTFDV", "log10 Kd (nM) by replicate": "-0.38 / -0.42 / -0.31 / -0.78 / -0.77 / -0.40", "log10 Kd (nM), mean": "-0.51", "empty controls": "1/18 (1.45)"}
{"CDR-H1": "GFDLDEYGIS", "CDR-H2": "VIYADGMRTVYADDVK", "CDR-H3": "GENAGTFDV", "log10 Kd (nM) by replicate": "-1.46 / -1.26 / -1.62 / -0.72 / -1.03 / -1.25", "log10 Kd (nM), mean": "-1.22", "empty controls": "0/18"}
{"CDR-H1": "GFDLNEYGIS", "CDR-H2": "VIYADGMRTQYADSVK", "CDR-H3": "GNNAGTFDV", "log10 Kd (nM) by replicate": "2.12 / 1.47 / 1.50 / 0.98 / 1.58 / 2.00", "log10 Kd (nM), mean": "1.61", "empty controls": "0/18"}
{"CDR-H1": "GFDLNEYGIS", "CDR-H2": "VIYADGMRTYYADDVK", "CDR-H3": "GENAGTFDT", "log10 Kd (nM) by replicate": "0.41 / -0.26 / -0.28 / -0.35 / -0.33 / 0.22", "log10 Kd (nM), mean": "-0.10", "empty controls": "1/18 (1.51)"}
{"CDR-H1": "GFDLDEYGIS", "CDR-H2": "VIYADGMRTFYADSVK", "CDR-H3": "GEVAGTFDL", "log10 Kd (nM) by replicate": "0.17 / -0.34 / 0.60 / -0.68 / -0.19 / -0.33", "log10 Kd (nM), mean": "-0.13", "empty controls": "1/18 (1.68)"}
{"CDR-H1": "GFDLNEYGIS", "CDR-H2": "VIYADGMRTAYADSVK", "CDR-H3": "GQNAGTFVV", "log10 Kd (nM) by replicate": "ND / ND / ND / ND / ND / 1.81", "log10 Kd (nM), mean": "1.81", "empty controls": "2/18 (1.15)"}

Extract of 2 entries:

{"CDR-H1": "GFDLNEYGIS", "CDR-H2": "VIYADGMRTYYADDVK", "CDR-H3": "GENAGTFDT", "log10 Kd (nM) by replicate": "0.41 / -0.26 / -0.28 / -0.35 / -0.33 / 0.22", "log10 Kd (nM), mean": "-0.10", "empty controls": "1/18 (1.51)"}
{"CDR-H1": "GFDLNEYGIS", "CDR-H2": "VIYADGMRTAYADKVK", "CDR-H3": "GNTAGTFDV", "log10 Kd (nM) by replicate": "0.13 / -0.62 / -0.32 / -0.81 / -0.88 / -0.78", "log10 Kd (nM), mean": "-0.55", "empty controls": "0/18"}